Reference: paper PMC9865188 (Pharmaceutics, 2023)
≈ marks a conversion by molar mass, not a printed value.

Tests used:
physchem [1] = conditions: pH 7.4, aqueous buffer, thermodynamic from solid
physchem [2] = assay: physchem

O[C@@H](COc1cccc2ncccc12)CN1CCN([C@@H]2c3ccccc3[C@@H]3[C@H](c4ccccc42)C3(F)F)CC1 [zosuquidar]
solubility (physchem [1]): 2.08 ± 0.3 µM (≈ 1.1 µg/mL) | pKa (physchem [2]; pKa1, pure water, 25 °C, 0.15 M potassium chloride): 1.5 ± 0.4 | pKa (physchem [2]; pKa2, DMSO cosolvent, extrapolated to 0% DMSO (Yasuda–Shedlovsky)): 4.83 ± 0.03 | pKa (physchem [2]; pKa2, pure water, 25 °C, 0.15 M potassium chloride): 4.78 ± 0.03 | pKa (physchem [2]; pKa3, DMSO cosolvent, extrapolated to 0% DMSO (Yasuda–Shedlovsky)): 7.94 ± 0.01 | pKa3 (DMSO cosolvent, extrapolated to 0% DMSO (Yasuda–Shedlovsky)): 7.9 | pKa2 (pure water, 25 °C, 0.15 M potassium chloride): 4.8
